Test results taken from patent US8552202B2, “Furo[3, 2-B] pyrrol-3-ones as cathespin S inhibitors” (Amura Therapeutics Limited, priority 2008, dated 2013).

The chains behind the UniProt entries cited, without tags or fusion partners. Residues count along the entry.
UniProt P25774, 115-331: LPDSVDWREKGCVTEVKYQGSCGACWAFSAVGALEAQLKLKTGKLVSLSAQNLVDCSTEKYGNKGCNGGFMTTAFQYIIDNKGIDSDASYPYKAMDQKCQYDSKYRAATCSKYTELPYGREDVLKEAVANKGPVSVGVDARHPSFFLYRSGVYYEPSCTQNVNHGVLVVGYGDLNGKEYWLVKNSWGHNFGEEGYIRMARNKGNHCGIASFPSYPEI

Target: Human recombinant cathepsin S (Homo sapiens (Human), UniProt P25774)
Assay: In vitro cathepsin Ki inhibition measurements, cathepsin S
Assay type: biochemical
Details: relative to prior art compound (38)
Method: Stock solutions of substrate or inhibitor were made up to 10 mM in 100% dimethylsulfoxide (DMSO) (Rathburns, Glasgow, U.K.) and diluted as appropriately required. In all cases the DMSO concentration in the assays was maintained at less than 1% (vol./vol.). The equilibrium inhibition constants (Ki^ss) for each compound were measured under steady-state conditions monitoring enzyme activity as a function of inhibitor concentration. The values were calculated on the assumption of pure competitive behaviour (Cornish-Bowden, A. Fundamentals of enzyme kinetics Portland Press; 1995, 93-128.). […]
The apparent inhibition constant (Ki) for each compound was determined on the basis that inhibition was reversible and occurred by a pure-competitive mechanism. The Ki values were calculated, from the dependence of enzyme activity as a function of inhibitor concentration, by direct regression analysis (Prism v 3.02) using Equation 2 (Cornish-Bowden, A., 1995.).
In situations where the apparent dissociation constant (Ki^app) approached the enzyme concentrations, the Ki^app values were calculated using a quadratic solution in the form described by Equation 3 (Morrison, J. F. Trends Biochem. Sci., 7, 102-105, 1982; Morrison, J. F. Biochim. Biophys. Acta. 185, 269-286, 1969: Stone, S. R. and Hofsteenge, J. Biochemistry, 25, 4622-4628, 1986). […]

Question: For O=C(N[C@H](C(=O)N1CC[C@H]2OCC(=O)[C@H]21)C1CCCCC1)c1ccccc1 [Compound 1], which “improvement in in vitro potency against human cathepsin S” value is on record?
Answer: 2.5 fold
